Consider 1 substance from patent publication US11060715B2, “Ex vivo proliferation of epithelial cells” (PROPAGENIX INC., priority 2015, dated 2021).

Common to all, as to assay type: cell-based, human
For assay [1], the system named is keratinocytes and airway epithelial cells. Briefly: Growth with rHA or BPE in KSFM with A 83-01, Y-27632 or blebbistatin, isoproterenol and EGF. As to the method: Keratinocytes and airway epithelial cells were cultured in KSFM supplemented with 1 μM A 83-01, 5 μM Y-27632, 3 μM isoproterenol, and 0.5 ng/mL epidermal growth factor (EGF) on collagen-coated culture vessels. Different concentrations of recombinant human serum albumin (rHA, expressed in rice and having the amino acid sequence of SEQ ID NO:1 or SEQ ID NO:2) or bovine pituitary extract (BPE) were tested for their growth promotion effects.
In another experiment, keratinocytes and airway epithelial cells were cultured for more than five consecutive passages under various conditions, and population doublings of the cell cultures were calculated. The conditions included 1) A+Y (BPE): KSFM supplemented with 1 μM A 83-01, 5 μM Y-27632, 3 μM isoproterenol, 0.5 ng/mL EGF and 30 μg/mL BPE; 2) A+Y (rHA): KSFM supplemented with 1 μM A 83-01, 5 μM Y-27632, 3 μM isoproterenol, 0.5 ng/mL EGF and 100 μg/mL rHA (expressed in rice); and 3) A+B (rHA): KSFM supplemented with 1 μM A 83-01, 2 μM blebbistatin, 3 μM isoproterenol, 0.5 ng/mL EGF and 100 μg/mL rHA (expressed in rice).

The next assay relates to keratinocytes. Briefly: Expansion of keratinocytes in KSFM supplemented with combinations of components. The conditions noted are these: 100 μg/mL, in the presence of A83-01, EGF and isoproterenol. The procedure:
In another experiment, keratinocytes were cultured in KSFM supplemented with various combinations of components. The components included epidermal growth factor (EGF), used at 0.5 ng/mL; bovine pituitary extract (BPE), used at 30 μg/mL; recombinant human serum albumin (rHA) expressed in rice, used at 100 μg/mL; isoproterenol (ISO), used at 3 μM; ALK5 inhibitor (A 83-01), used at 1 μM; ROCK inhibitor (Y-27632), used at 5 μM; Myosin II ATPase inhibitor (blebbistatin) used at 2 μM; antagonist for retinoic acid receptor (RAR), BMS-453, used at 100 nM. […] Moreover, this effect was independent of a ROCK inhibitor (Y-27632) or a Myosin II ATPase inhibitor (blebbistatin).
In another experiment, keratinocytes were cultured in the presence of increasing doses of ROCK inhibitor (Y-27632) or Myosin II ATPase inhibitor (blebbistatin), in KSFM supplemented with EGF (0.5 ng/mL), isoproterenol (3 μM), A 83-01 (1 μM), and recombinant human serum albumin (expressed in rice; 100 μg/mL).
In another experiment, keratinocytes were cultured in the presence of increasing doses (between 10 nM to 2 μM) of retinoic acid receptors (RAR) antagonist BMS-453 or retinoic acid receptors (RAR) antagonist BMS-195614, in KSFM supplemented with EGF (0.5 ng/mL), isoproterenol (3 μM), A 83-01 (1 μM), and recombinant human serum albumin (expressed in rice; 100 μg/mL).

Assay [2] relates to neonatal foreskin keratinocytes, bronchial epithelial cells from a healthy donor and from a cystic fibrosis donor. Briefly: Extended expansion in KSFM with A 83-01, EGF, isoproterenol, rHA and BMS-453. The conditions noted are these: 100 μg/mL rHA with 1 μM A 83-01, 0.5 ng/ml EGF, 3 μM isoproterenol, 50 nM BMS-453. The procedure: In another experiment, neonatal foreskin keratinocytes, bronchial epithelial cells from a healthy donor, and bronchial epithelial cells from a cystic fibrosis donor were each cultured and passaged in KSFM supplemented with 1 μM A 83-01, 0.5 ng/ml EGF, 3 μM isoproterenol, 100 μg/mL rHA, and 50 nM BMS-453. Population doublings of the cell cultures were calculated.

As to “rHA: recombinant human serum albumin expressed in rice (Sigma, A9731), SEQ ID NO:1 or SEQ ID NO:2”, the “extended expansion (population doublings)” value in assay [1] (100 μg/mL rHA versus 30 μg/mL BPE, more than five consecutive passages) was “supports extended expansion of epithelial cells to similar levels as bovine pituitary extract (BPE)”; in assay [2], “supports extended expansion of epithelial cells”. For the same substance, in assay [1] (KSFM with 1 μM A 83-01, 5 μM Y-27632, 3 μM isoproterenol, 0.5 ng/mL EGF, collagen-coated vessels), the “growth promotion (support of epithelial cell culture)” value was “can be used in place of bovine pituitary extract (BPE)”. Besides, in the assay with keratinocytes, the extended expansion result was “supports extended expansion of epithelial cells to similar levels as bovine pituitary extract (BPE)”.
